Measurements taken from the NIST ThermoML archive (doi:10.1016/j.jct.2016.08.007).
Numbers after ± are expanded uncertainties.

Assays:
[1] = Crystal; DTA
[2] = Molar enthalpy of transition or fusion; details: Crystal; DSC

Normal melting temperature [1]: 133.50 ± 1.1 °C | Molar enthalpy of transition or fusion [2]: 6.34 ± 0.232 kcal/mol
SMILES: CC1=NN(c2ccc(C)cc2)C(=O)C1 [2,4-dihydro-5-methyl-2-(4-methylphenyl)-3H-pyrazol-3-one]
